# Literature values in patent US20020198219A1, “2-pyridinamine compositions and related methods” (priority 2000, published 2002).
# Protein sequences, listed by entry. Tags and fused reporters are not part of them.
# UniProt Q16539, whole entry: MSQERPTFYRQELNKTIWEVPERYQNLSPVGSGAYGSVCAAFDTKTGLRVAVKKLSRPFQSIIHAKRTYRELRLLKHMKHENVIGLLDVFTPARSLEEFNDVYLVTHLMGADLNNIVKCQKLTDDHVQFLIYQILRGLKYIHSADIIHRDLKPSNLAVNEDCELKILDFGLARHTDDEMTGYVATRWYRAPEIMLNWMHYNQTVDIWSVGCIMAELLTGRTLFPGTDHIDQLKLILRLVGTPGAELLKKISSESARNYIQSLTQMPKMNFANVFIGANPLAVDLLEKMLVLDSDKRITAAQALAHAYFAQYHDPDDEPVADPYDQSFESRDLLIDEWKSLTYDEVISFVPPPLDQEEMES
# Biological target: p38 kinase (Homo sapiens, UniProt Q16539)
# Conditions: from the literature; cited from earlier work
smiles,measurement,value
CCc1[nH]c(-c2ccc(OC)cc2)nc1-c1ccncc1 [SB202474],"Activity, p38 kinase",Inactive
